The target in this test is angiotensin II-induced vasoconstriction (Oryctolagus cuniculus, UniProt P34976). Kind of test: Inhibition of Angiotensin II Dose-Response in Rabbit Thoracic Aorta. The arrangement: from tissue; host or cells: thoracic aorta rings of New Zealand white rabbits; species or system New Zealand white rabbits. The settings on record: contraction, 95% C.L. in brackets. On the procedure: Inhibition of Angiotensin II Dose-Response in Rabbit Thoracic Aorta
VII. Cellular and Biochemical pharmacology of DuP 753, an orally active antihypertensive agent. J. Pharmacol. Exp. Ther., 252, 726 (1990)]
Test compounds are diluted in dimethylsulfoxide vehicle such that a 50 μL addition to the tissue bath produces a final bath concentration of 1×10^-5 M compound in Krebs-bicarbonate buffer (baths contain 15 mL Krebs-bicarbonate buffer).
Procedure: 1.8 to 2.3 kg New Zealand white rabbits are sacrificed with an intravenous sodium pentobarbital overdose and the thoracic aorta gently dissected free from the aortic root to the level of the diaphragm, into ice cold Krebs bicarbonate buffer. The aorta is gently freed of clots and adventitia and cleanly cut into 5 mm segments. Each ring is suspended from a Gould isotonic force transducer in a tissue bath containing 15 mL oxygenated Krebs bicarbonate buffer regulated at 37° C. Initial tenison is adjusted to 4.0 g and equilibrated over three 20-minute wash periods with fresh Krebs-bicarbonate buffer to achieve a baseline tension of 3.0 g. […] […] […] In addition, since the test compounds are dissolved in DMSO, DMSO alone is tested in two rings as a vehicle control in each screening experiment.
Angiotensin II ED50 and ED90 is determined from the angiotensin II dose-response curves generated before and after test compound.

The chains behind the UniProt entries cited, without tags or fusion partners.
UniProt P34976, whole entry: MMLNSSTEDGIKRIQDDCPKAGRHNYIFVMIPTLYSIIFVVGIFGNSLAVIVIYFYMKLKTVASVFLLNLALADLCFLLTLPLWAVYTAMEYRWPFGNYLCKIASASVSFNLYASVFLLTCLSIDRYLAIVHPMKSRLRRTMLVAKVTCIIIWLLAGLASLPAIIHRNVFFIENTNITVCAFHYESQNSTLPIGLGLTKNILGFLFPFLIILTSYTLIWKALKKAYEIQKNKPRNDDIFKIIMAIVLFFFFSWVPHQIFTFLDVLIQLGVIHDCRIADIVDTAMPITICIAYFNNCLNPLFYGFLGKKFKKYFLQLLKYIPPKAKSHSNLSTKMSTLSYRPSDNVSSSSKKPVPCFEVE

Read-outs that look alike come from different tables or passages of the source.

For angiotensin II [reference compound], the EC50 (after DMSO vehicle, read-out: Mean ED50 for angiotensin II after DMSO vehicle treatment) was 1.88 nM and the EC50 (before DMSO vehicle, read-out: Mean ED50 for angiotensin II before DMSO vehicle treatment) came to 1.02 nM.

For the origin of these results see patent US5246940A, “Substituted N-biphenylyl lactams” (Ortho Pharmaceutical Corporation, priority 1993, dated 1993).
